Test results taken from patent US9505726B2, “Substituted biphenyl amides as P2X3 and P2X2/3 antagonists” (Roche Palo Alto LLC, priority 2009, dated 2016).

Target: T1, rat P2X3 receptor (Rattus norvegicus, UniProt P49654)
T1 construct: expressed in transfected cells; host or cells: CHO-K1
T1 sequence (P49654 1-397): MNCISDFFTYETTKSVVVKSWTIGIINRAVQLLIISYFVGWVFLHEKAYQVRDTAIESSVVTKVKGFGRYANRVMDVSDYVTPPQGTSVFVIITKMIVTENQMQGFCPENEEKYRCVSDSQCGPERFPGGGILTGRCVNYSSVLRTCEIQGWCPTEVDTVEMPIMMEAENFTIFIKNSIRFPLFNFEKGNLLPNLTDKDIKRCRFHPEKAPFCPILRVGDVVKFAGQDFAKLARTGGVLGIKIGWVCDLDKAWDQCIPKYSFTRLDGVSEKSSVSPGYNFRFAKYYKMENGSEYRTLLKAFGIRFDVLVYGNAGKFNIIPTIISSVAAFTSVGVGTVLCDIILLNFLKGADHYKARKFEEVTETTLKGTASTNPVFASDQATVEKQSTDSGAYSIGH
Assay: P2X3 FLIPR (Fluorometric Imaging Plate Reader) assay
Format: cell-based
Conditions: CHO-K1 cells transfected with cloned rat P2X3; agonist α,β-meATP 1 μM; Fluo-3 AM calcium fluorescence
Protocol: Representative compounds in accordance with the methods of the invention are shown in Table 1, with pIC50 values for the P2X3 receptor.
CHO-K1 cells were transfected with cloned rat P2X3 or human P2X2/3 receptor subunits and passaged in flasks. 18-24 hours before the FLIPR experiment, cells were released from their flasks, centrifuged, and resuspended in nutrient medium at 2.5×10^5 cells/ml. The cells were aliquoted into black-walled 96-well plates at a density of 50,000 cells/well and incubated overnight in 5% CO2 at 37° C. On the day of the experiment, cells were washed in FLIPR buffer (calcium- and magnesium-free Hank's balanced salt solution, 10 mM HEPES, 2 mM CaCl2, 2.5 mM probenecid; FB). […]
Test compounds (dissolved in DMSO at 10 mM and serially diluted with FB) or vehicle were added to each well (25 μl of a 4× solution) and allowed to equilibrate for 20 minutes at room temperature. The plates were then placed in the FLIPR and a baseline fluorescence measurement (excitation at 488 nm and emission at 510-570 nm) was obtained for 10 seconds before a 100 μl/well agonist or vehicle addition. […] Fluorescence was measured for an additional 2 minutes at 1 second intervals after agonist addition. A final addition of ionomycin (5 μM, final concentration) was made to each well of the FLIPR test plate to establish cell viability and maximum fluorescence of dye-bound cytosolic calcium. […]

Row | SMILES | P2X3 (pIC50 values for the P2X3 receptor)
1 | CCC(CC)C(=O)N(C)c1cc(C(=O)NC(C)c2cnccn2)cc(-c2ccc(C)cc2)c1 (centres unmarked) [Compound 47, 5-[(2-Ethyl-butyryl)-methyl-amino]-4′-methyl-biphenyl-3-carboxylic acid (1-pyrazin-2-yl-ethyl)-amide] | 7.12
2 | CCN(C(=O)OC(C)C)c1cc(C(=O)NC(C)c2cnccn2)cc(-c2ccc(C)cc2)c1 (centres unmarked) [Compound 37, Ethyl-[4′-methyl-5-(1-pyrazin-2-yl-ethylcarbamoyl)-biphenyl-3-yl]-carbamic acid isopropyl ester] | 7.12
